## Apparent affinities of Ab-14 variants for a coronavirus HR2 peptide

Source: Li et al. 2023 (doi:10.1038/s41467-023-39022-2), MIT Lincoln Laboratory and A-Alpha Bio; data file from the FLAb repository.

Target peptide (SARS-CoV-2 spike, HR2 region): PDVDLGDISGINAS

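Phage display of a naive human antibody library on the peptide gave the parent. These sequences belong to a second round, designed from the earlier measurements on random variants of the parent. Group labels follow the data file (Ctrl: baseline library sampled from a position-specific scoring matrix, with some repeated check sequences; En: ensemble of fine-tuned language models; GP: Gaussian process model; GPLM: also part of the Gaussian process libraries; HC: hill climbing; Gen: genetic algorithm; Gibbs: Gibbs sampling; a sequence that several methods proposed may carry one label only). The assay is AlphaSeq: two haploid yeast populations carry antibody and antigen on their surface. Pairs that bind mate more often; barcode pairs of the diploids are counted by sequencing. Each replicate has its own calibration line, from reference interactions of the BCL2 family. There are six technical replicates.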

Each scFv is VH, the linker GGGGSGGGGSGGGGS, VL, as in the parent Ab-14, and differs from it in the CDRs of the heavy chain only.
VH: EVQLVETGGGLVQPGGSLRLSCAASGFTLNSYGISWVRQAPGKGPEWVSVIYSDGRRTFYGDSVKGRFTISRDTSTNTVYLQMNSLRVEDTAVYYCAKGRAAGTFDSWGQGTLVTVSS
VL: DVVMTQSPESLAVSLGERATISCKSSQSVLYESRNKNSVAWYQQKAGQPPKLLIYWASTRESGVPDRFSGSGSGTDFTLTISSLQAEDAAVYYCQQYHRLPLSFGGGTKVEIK

The parent's heavy chain CDRs are GFTLNSYGIS, VIYSDGRRTFYGDSVK, GRAAGTFDS; each variant's own CDRs replace them letter for letter. The read-out is the apparent dissociation constant on a log10 scale (nM): the lower, the stronger. Replicates are averaged; those with no signal do not enter the mean. "not detected" means that the variant was in the library but no mating with the target was seen in any replicate; the authors take this as a sign of poor binding, and no number exists. Some sequences occur more than once in the pool; their replicates are pooled.

{"CDR-H1": "GFTLNSYGIS", "CDR-H2": "VIYSDGRRTFYDDSVA", "CDR-H3": "GRAAGTFDS", "group": "Ctrl", "mean, log10 nM": "1.82", "replicates with signal": "6/6", "empty controls": "2/18"}
{"CDR-H1": "GFDLNEYGIS", "CDR-H2": "VIYADGKRTAYADSVK", "CDR-H3": "GVNAGTFDV", "group": "En_Gen", "mean, log10 nM": "0.77", "replicates with signal": "6/6", "empty controls": "1/18"}
{"CDR-H1": "GFDLNEYGIS", "CDR-H2": "VIYADGMRTAYADDVK", "CDR-H3": "GNTAGTFDV", "group": "En_Gen", "mean, log10 nM": "-0.63", "replicates with signal": "6/6", "empty controls": "0/18"}
{"CDR-H1": "GFDLNEYGIS", "CDR-H2": "VIYADGRRTAYIDSVK", "CDR-H3": "GQLAGTFDT", "group": "En_HC", "mean, log10 nM": "-0.90", "replicates with signal": "6/6", "empty controls": "0/18"}
{"CDR-H1": "GFTLNSYGIS", "CDR-H2": "VIYADGRRTFYGDSVK", "CDR-H3": "GKAAGTFKY", "group": "GP_HC", "mean, log10 nM": "not detected", "replicates with signal": "0/6", "empty controls": "1/18"}
{"CDR-H1": "GFNLNSYGIS", "CDR-H2": "VIYSDGKRTFYADSVK", "CDR-H3": "GRQAGTFDS", "group": "GP_Gen", "mean, log10 nM": "0.09", "replicates with signal": "6/6", "empty controls": "0/18"}
{"CDR-H1": "GFDLNEYGIS", "CDR-H2": "VIYADGRRTFYSDSVK", "CDR-H3": "GVFAGTFDV", "group": "En_HC", "mean, log10 nM": "-0.27", "replicates with signal": "6/6", "empty controls": "1/18"}
{"CDR-H1": "GESLDEYGIS", "CDR-H2": "VIYADGMRTAYTDKVK", "CDR-H3": "GLVAATLVD", "group": "En_Gibbs", "mean, log10 nM": "not detected", "replicates with signal": "0/6", "empty controls": "0/18"}
{"CDR-H1": "GFSLNSYGIS", "CDR-H2": "VIYSDGRRTFYSDSVK", "CDR-H3": "GQAAGTFDK", "group": "GPLM_Gen", "mean, log10 nM": "0.40", "replicates with signal": "6/6", "empty controls": "1/18"}
{"CDR-H1": "GFTLNSYGIS", "CDR-H2": "VIYSDGRRTFYGDSVK", "CDR-H3": "GRAGGTFDM", "group": "Ctrl", "mean, log10 nM": "1.70", "replicates with signal": "2/6", "empty controls": "0/18"}
{"CDR-H1": "GFTLNSYGIS", "CDR-H2": "VIYSDGRRTFYVDSVK", "CDR-H3": "GQLAGTFDS", "group": "GPLM_Gen", "mean, log10 nM": "-0.17", "replicates with signal": "1/6", "empty controls": "0/18"}
{"CDR-H1": "GFDLQEYGIS", "CDR-H2": "VIYADGVREAYRNSFK", "CDR-H3": "GQIAGTINS", "group": "En_Gibbs", "mean, log10 nM": "1.20", "replicates with signal": "1/6", "empty controls": "1/18"}
{"CDR-H1": "GFDLDEYGIS", "CDR-H2": "VIYADGRRTAYVDSVK", "CDR-H3": "GENAGTFDV", "group": "En_Gen", "mean, log10 nM": "-0.22", "replicates with signal": "6/6", "empty controls": "0/18"}
{"CDR-H1": "GFDLNEYGIS", "CDR-H2": "VIYADGMRTVYADSVK", "CDR-H3": "GQNAGTFDI", "group": "En_Gen", "mean, log10 nM": "-0.83", "replicates with signal": "6/6", "empty controls": "0/18"}
{"CDR-H1": "GFNLDEYGIS", "CDR-H2": "VIYADGIREHYVDDVK", "CDR-H3": "GKHGGGKLD", "group": "En_Gibbs", "mean, log10 nM": "not detected", "replicates with signal": "0/6", "empty controls": "2/18"}
{"CDR-H1": "GFTLNSYGIS", "CDR-H2": "VIYSDGFRTAYLDSVK", "CDR-H3": "GRAAGTFDS", "group": "Ctrl", "mean, log10 nM": "1.06", "replicates with signal": "5/6", "empty controls": "1/18"}
{"CDR-H1": "GFTLNSYGIS", "CDR-H2": "VIYSDGRRTFYSDSVK", "CDR-H3": "GRAAGEFRS", "group": "Ctrl", "mean, log10 nM": "2.62", "replicates with signal": "1/6", "empty controls": "1/18"}
{"CDR-H1": "GFDLNSYGIS", "CDR-H2": "VIYSDGRRTFYHDSVK", "CDR-H3": "GRAAGTFDS", "group": "Ctrl+GPLM_Gen", "mean, log10 nM": "0.73", "replicates with signal": "7/12", "empty controls": "0/36"}

Top 2 of the variants detected in all replicates, tightest first:

{"CDR-H1": "GFDLNEYGIS", "CDR-H2": "VIYADGRRTAYIDSVK", "CDR-H3": "GQLAGTFDT", "group": "En_HC", "mean, log10 nM": "-0.90", "replicates with signal": "6/6", "empty controls": "0/18"}
{"CDR-H1": "GFDLNEYGIS", "CDR-H2": "VIYADGMRTVYADSVK", "CDR-H3": "GQNAGTFDI", "group": "En_Gen", "mean, log10 nM": "-0.83", "replicates with signal": "6/6", "empty controls": "0/18"}

Empty control strains, which show no peptide, gave a signal in 1% of pairings with all heavy chain designs; the median was 2.08 and 95% of these signals were weaker than 0.84. No background was subtracted. Also given: how often the same scFv was detected with the empty control strains. The authors averaged sequences with at least three values out of six and counted those with two or fewer as poor binders. A sequence measured in both rounds can read differently, since the two assays cover different ranges.